Measured values published in US20260041680A1, “METHODS OF TREATING CANCER WITH LONG-ACTING TOPOISOMERASE I INHIBITOR” (priority 2022, published 2026).

Assays:
[1] = test system: HT-29 human colon cancer xenograft; test: HT-29 human colon cancer xenograft, antitumor activity and tolerability; assay type: in vivo, nude rat; settings: PLX038 50, 100 or 200 mg/kg IV once a week for 2 weeks
[2] = PLX038 Q3W; for SN-38 AUC (AUC0-∞): calculated from the models; for Cmax: read-out: SN-38 Cmax
[3] = mice
[4] = humans
[5] = for tolerability: Grade 3 diarrhea
[6] = total SN-38 14 mg/m^2/cycle, free SN-38 delivered 4 mg/m^2/cycle
[7] = total SN-38 21 mg/m^2/cycle, free SN-38 delivered 6 mg/m^2/cycle
[8] = total SN-38 31 mg/m^2/cycle, free SN-38 delivered 9 mg/m^2/cycle
[9] = total SN-38 46 mg/m^2/cycle, free SN-38 delivered 13 mg/m^2/cycle
[10] = total SN-38 62 mg/m^2/cycle, free SN-38 delivered 17 mg/m^2/cycle
[11] = total SN-38 107 mg/m^2/cycle, free SN-38 delivered 32 mg/m^2/cycle

In the case of “O-[7-(tetra-polyethylene glycol ether)-carboxamido-1-cyano-2-heptyl]-N-(10′-methoxy-7′-ethyl-camptothecin)-N-[4′-(diethylcarbamoyl)phenyl)] carbamate [PLX038]”, the body weight loss [1] is reported as 2%, the diarrhea [1] is reported as “no diarrhea” and the “SN-38 AUC (AUC0-∞)” value ([2]; total SN-38 14 mg/m^2/cycle) is reported as 1,660 ± 560 (4) nM · h. For the same substance, the “SN-38 t1/2” value [2, 6] was 97 ± 11.4 (4) h, the “SN-38 AUC (AUC0-∞)” value ([2]; total SN-38 21 mg/m^2/cycle) was 1,756 ± 1071 (2) nM · h and the “SN-38 t1/2” value [2, 7] was 91 ± 3.7 (2) h. The “SN-38 AUC (AUC0-∞)” value ([2]; total SN-38 31 mg/m^2/cycle) was 2,513 (1) nM · h, the “SN-38 t1/2” value [2, 8] was 90 (1) h and the “SN-38 AUC (AUC0-∞)” value ([2]; total SN-38 46 mg/m^2/cycle) was 4,000 nM · h. For the same substance, the “SN-38 t1/2” value [2, 9] was 85 h, the “SN-38 AUC (AUC0-∞)” value ([2]; total SN-38 62 mg/m^2/cycle) was 6,126 nM · h and the “SN-38 t1/2” value [2, 10] was roughly 100 h. The “SN-38 AUC (AUC0-∞)” value ([2]; total SN-38 82 mg/m^2/cycle (2,300 mg/m^2 PLX038: simulated)) was 11,356 nM · h, the “SN-38 t1/2” value ([2]; total SN-38 82 mg/m^2/cycle, free SN-38 delivered 23 mg/m^2/cycle (2,300 mg/m^2 PLX038: simulated from lower doses assuming t1/2 = 100 h)) was roughly 100 h and the “SN-38 AUC (AUC0-∞)” value ([2]; total SN-38 107 mg/m^2/cycle) was 17,820 ± 2550 ^ nM · h. For the same substance, the “SN-38 t1/2” value [2, 11] was 118 ± 31 h, the Cmax [2, 6] was 22 ± 6.2 nM and the Cmax [2, 7] was 14 ± 4.7 nM. It also gave a Cmax [2, 8] of 24 ± 13 nM, a Cmax [2, 9] of 30 nM and a Cmax [2, 10] of 46 nM. For the same substance, the Cmax ([2]; total SN-38 82 mg/m^2/cycle, free SN-38 delivered 23 mg/m^2/cycle (2,300 mg/m^2 PLX038: simulated from lower doses, dose linearity of Cmax)) was 68 nM, the Cmax [2, 11] was 186 ± 88 nM and the elimination half-life [3] was roughly 20 h. The “efflux from xenograft tumors” value (xenograft tumors; compared to normal tissues) was “extremely slow”, the “tmax for tumor accumulation” value (xenograft tumors; rodent models) was roughly 100 h and the “liver/GI exposure of SN-38” value (SN-38 from PLX038, evident from low SN-38G/SN-38) was “very low”. For the same substance, the “systemic SN-38 as % of Cmax” value (at gap of 48 hr) was 76%, the “systemic SN-38 as % of Cmax” value (at gap of 120 h (5 days)) was 50% and the “systemic SN-38 concentration” value (at gap of 120 h (5 days)) was roughly 27 nM. For the same substance, the SN-38G level (at the dose of PLX038 used in Schedule 1) was “barely detectable”, the “reduction of GI exposure to SN-38” value (changing from a 2- to 5 day gap schedule) was roughly 2 fold and the “reduction of systemic SN-38 level at time PARP inhibitor is introduced” value (changing from a 2 to 5 day gap schedule) was roughly 1.5 fold. For the same substance, the “t1/2 of SN-38G from PLX038” value (human) was 120 h, the Cmax (read-out: systemic SN-38 Cmax, human, Schedule 1 PLX038 dose) was roughly 55 nM and the elimination half-life [4] was roughly 120 h. For the same substance, the “maximal administered dose (MAD)” value ([5]; PLX038 every 3 weeks, patients) was 3060 mg/m^2, the “gastrointestinal (GI) toxicity” value ([5]; Phase 1, thus far) was “neither expected or observed” and the tolerability ([5]; intermediate dose 2600 mg/m^2) was “not tolerated”. The tolerability ([5]; intermediate dose 2800 mg/m^2) was “not tolerated”.

Read-outs that look alike come from different tables or passages of the source.
